Data: PubChem BioAssay AID1325 (NMMLSC, 2008)
This is a selection; strong and weak results do not stand in their true shares. Active and inactive are the calls of the source.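 How the source made its calls: active means inhibition above 80%; inactive means the rest.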

By UniProt entry, the sequences of proteins in these tests, tags left out.
UniProt Q9UNQ0, whole entry: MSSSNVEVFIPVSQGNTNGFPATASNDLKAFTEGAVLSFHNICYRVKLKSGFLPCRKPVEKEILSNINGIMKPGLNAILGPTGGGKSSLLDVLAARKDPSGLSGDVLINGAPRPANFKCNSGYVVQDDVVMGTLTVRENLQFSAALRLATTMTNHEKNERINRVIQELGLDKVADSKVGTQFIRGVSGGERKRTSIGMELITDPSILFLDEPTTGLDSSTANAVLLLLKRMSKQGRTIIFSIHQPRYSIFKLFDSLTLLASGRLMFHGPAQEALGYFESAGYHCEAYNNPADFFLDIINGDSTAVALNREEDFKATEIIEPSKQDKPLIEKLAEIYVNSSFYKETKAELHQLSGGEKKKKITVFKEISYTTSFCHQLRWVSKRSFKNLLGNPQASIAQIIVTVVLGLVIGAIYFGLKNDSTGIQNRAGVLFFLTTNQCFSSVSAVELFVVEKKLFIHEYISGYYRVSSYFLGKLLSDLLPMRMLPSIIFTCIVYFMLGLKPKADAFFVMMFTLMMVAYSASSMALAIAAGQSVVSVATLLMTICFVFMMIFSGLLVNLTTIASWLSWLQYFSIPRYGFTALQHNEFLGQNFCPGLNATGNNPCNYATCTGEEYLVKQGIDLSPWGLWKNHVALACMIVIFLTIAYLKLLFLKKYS

Target: Broad substrate specificity ATP-binding cassette transporter ABCG2 (Homo sapiens) (UniProt Q9UNQ0)
Assay: blockers of JC-1 export by ABCG2 – multiplex with ABCB1, IgMXP3 cells, flow cytometry, primary screen (AID 1325);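 further: 0% = DMSO and 100% = nicardipine control wells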
Settings: JC-1 efflux, at 6.6 µM, active compounds read high

Row | SMILES | inhibition
1 | COc1ccc(NC2CCN(CCc3ccccc3)CC2)c(OC)c1 | inactive: 0.63%
2 | COc1ccc(C(=O)NCC2(N3CCCCC3)CCCCC2)c(OC)c1OC | inactive: 3.67%
3 | O=C(NCC1(N2CCOCC2)CCCCC1)c1cc2ccccc2o1 | inactive: 2.92%
4 | CCOC(=O)N1CCC(Nc2ccc(OC)cc2)CC1 | inactive: 1.52%
5 | O=C(OC1CN2CCC1CC2)C1c2ccccc2Oc2ccccc21 (stereo not given) | inactive: 1.25%
6 | COc1ccc(CN(CCCl)CCCl)cc1Cl | inactive: 7.54%
7 | CN(C)c1cccc(C(=O)NCC2(N3CCCCC3)CCCCC2)c1 | inactive: -1.12%
8 | CC(C)c1ccc(NC2CCN(C(=O)OC(C)(C)C)CC2)cc1 | inactive: 0.46%
9 | O=C(NCC1(N2CCCCC2)CCCCC1)c1cccc([N+](=O)[O-])c1 | inactive: 10.9%
10 | N#CC1(Nc2ccccc2)CCN(CCc2ccccc2)CC1 | inactive: 1.32%
11 | COc1ccc(NC2CCN(C(=O)OC(C)(C)C)CC2)cc1 | inactive: 5.32%
12 | CN1CCN(CCOC(=O)C(O)(c2ccccc2)c2ccccc2)CC1 | inactive: 1.86%
13 | O=C(NCC1(N2CCOCC2)CCCCC1)c1cc(=O)[nH]c2ccccc12 | inactive: 2%
14 | N#Cc1ccc(C(=O)NCC2(N3CCCCC3)CCCCC2)cc1 | inactive: -0.63%
15 | c1ccc(CN2CCC(Nc3ccccc3)CC2)cc1 | inactive: 0.29%
16 | COc1ccc(C(=O)NCC2(N3CCOCC3)CCCCC2)cc1OC | inactive: 5.3%
17 | N/C(=N\O)c1c(N)no[n+]1[O-] | inactive: 0.98%
18 | O=C(OC1CN2CCC1CC2)C1c2ccccc2C=Cc2ccccc21 (stereo not given) | inactive: -1.41%
19 | CCOc1ncccc1C(=O)NCC1(N2CCOCC2)CCCCC1 | inactive: -0.01%
20 | CC(C)(C)OC(=O)N1CCC(Nc2ccccc2)CC1 | inactive: 1.68%
21 | CCC(CO)(C(=O)OC1CN2CCC1CC2)c1ccccc1 (stereo not given) | inactive: 1.39%
22 | COc1cc(OC)cc(C(=O)NCC2(N3CCOCC3)CCCCC2)c1 | inactive: 4.03%
23 | Fc1ccccc1NC1CCN(Cc2ccccc2)CC1 | inactive: 1.49%
24 | CCN1CCC(Nc2cccc(F)c2)CC1 | inactive: 1.84%
25 | CN(C)c1ccc(C(=O)NCC2(N3CCCCC3)CCCCC2)cc1 | inactive: 1.6%
